# Yeast mating assay B: variants of the scFv Ab-14

Data: MIT Lincoln Laboratory AlphaSeq set, Li et al. 2023, doi:10.1038/s41467-023-39022-2, as distributed in FLAb.

Target: peptide PDVDLGDISGINAS, taken from heptad repeat 2 (HR2) of SARS-CoV-2 spike.

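Phage display of a naive human antibody library on the peptide gave the parent. The variants were designed computationally from a first round of random CDR variants and then made and measured. Their group label is 14L_En_Gibbs (En: ensemble of fine-tuned language models; Gibbs: Gibbs sampling). The scFvs were displayed on barcoded MATa yeast, the peptide on MATalpha yeast. Pairs that bind mate more often; barcode pairs of the diploids are counted by sequencing. Each replicate has its own calibration line, from reference interactions of the BCL2 family. The assay was run in six technical replicates.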

Each scFv is VH, a (GGGGS)3 linker, VL, as in the parent Ab-14, and differs from it in the CDRs of the light chain only.
VH: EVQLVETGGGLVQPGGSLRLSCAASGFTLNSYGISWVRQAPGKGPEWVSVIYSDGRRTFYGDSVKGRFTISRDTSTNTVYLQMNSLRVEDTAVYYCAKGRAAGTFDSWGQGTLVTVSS
VL: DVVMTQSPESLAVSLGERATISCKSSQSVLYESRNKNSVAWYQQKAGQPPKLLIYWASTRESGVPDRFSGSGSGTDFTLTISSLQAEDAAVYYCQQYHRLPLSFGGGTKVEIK

The parent's light chain CDRs are KSSQSVLYESRNKNSVA, WASTRES, QQYHRLPLS; each variant's own CDRs replace them letter for letter.
Numbers give log10(Kd / nM), so 0 is 1 nM and 3 is 1 µM. Smaller is tighter.
The mean shown is taken over the replicates in which the pair was detected.
Where no diploid with the target was found in that replicate, the entry reads "n.d.": below detection, most likely a poor binder, though not proof of it.
In the paper, a design with two or fewer of six values counts as a poor binder.
Of ten entries with the parent sequence, four were seen in most replicates (averages 0.34 to 2.37), three in one and three in none, so single entries are noisy.
Nonspecific signal, from three strains lacking the peptide, appeared in 4% of pairings of all light chain designs, centred on 2.64 (5% of these signals below 1.59); values are not corrected for it. Also given: how often the same scFv was detected with the empty control strains, with their mean in brackets.
A sequence measured in both rounds can read differently, since the two assays cover different ranges.

CDR-L1 | CDR-L2 | CDR-L3 | replicates, log10 nM | log10 Kd (nM), mean | empty controls
KIYQLGLGSQKINNNIA | QTSIREL | QSYNRLPLS | 0.96 0.50 0.56 0.83 0.58 1.28 | 0.79 | 2 of 18 (2.67)
DMTGQFNGASNIQNSVA | HGVEKID | QQYVRLPLA | 0.25 0.20 -0.04 -0.04 -0.09 0.15 | 0.07 | 3 of 18 (2.54)
KFNMEVGGQNNNKYAIA | AAHQLEY | QTYHRLPLS | n.d. 1.78 1.87 n.d. n.d. n.d. | 1.83 | 1 of 18 (2.20)
HVHMEMAEEKEIRYNIA | DASMRYA | QQYVRLPLG | 0.51 1.05 0.29 0.18 0.14 0.37 | 0.42 | 0 of 18
IIAENSDNLTEKLNSIA | ETSQVRQ | QQYHLLPLA | n.d. n.d. n.d. n.d. n.d. n.d. | n.d. | 0 of 18
NFGQKMALYTGDRYSIA | DATVEAD | QQYSRLPLT | 0.86 0.79 0.77 0.65 0.84 0.66 | 0.76 | 0 of 18
RVRNEMGKEMERKQSVA | ETEQRCM | QQYARLPLI | 1.25 0.91 0.84 0.71 0.48 0.46 | 0.78 | 0 of 18
KIQPQLQQSFASKNNVA | DRQMSAE | QQYNRLPLV | n.d. n.d. n.d. n.d. n.d. n.d. | n.d. | 0 of 18
RVQINSGHIDMHWYSIA | SASIRAD | QQYERLPLA | 0.74 1.83 0.72 1.25 1.48 1.27 | 1.22 | 0 of 18
SLYEAMQTGKLRTSNIA | DVNQQMR | QQYNRLPLM | 0.27 0.22 -0.03 0.04 0.13 0.27 | 0.15 | 1 of 18 (2.83)
KLTAKQNPYDQNYSNIA | EETNSLQ | QQYHHLPLS | n.d. n.d. n.d. n.d. 4.08 2.20 | 3.14 | 0 of 18
KFSVSKEMVNKEGESIA | GSHTIQE | QQYSRLPLA | n.d. 1.87 n.d. 1.22 n.d. n.d. | 1.55 | 0 of 18
HLELEYMQMMKDHNSIA | DTEHKTQ | QQYFRLPIS | 0.48 0.11 0.09 0.28 0.29 0.88 | 0.35 | 0 of 18
HMLYAFNTGSLRDNNVA | EGETVLD | QQYFRLPIT | 2.33 1.07 1.64 1.67 1.55 1.86 | 1.69 | 1 of 18 (3.18)
NLSMSAATFVNESSSIA | NAEQTYD | QQYHELPLV | 1.46 2.39 2.48 2.13 1.47 2.32 | 2.04 | 0 of 18
HVGQTRQADISNKKSVA | EGETLID | QQYGRLPFS | 0.82 1.06 0.79 0.58 0.89 1.27 | 0.90 | 1 of 18 (3.08)
LIMKFMSQDGSARNNIA | GDTKLAQ | QAYYRLPLS | n.d. n.d. n.d. n.d. n.d. n.d. | n.d. | 0 of 18
TLMMQPTEQRDNKHAVA | DNNQRDR | QQYHRLPLS | 1.17 1.10 1.46 1.19 1.38 1.94 | 1.38 | 1 of 18 (2.22)
SLTIYTDENGLKHQSIA | GAGNRML | QQYHRLPLT | 0.33 0.36 0.19 0.26 0.48 0.42 | 0.34 | 0 of 18
KLSMNQEGQLNKGQSVA | GASEVCI | QQFYRLPLV | n.d. 1.60 1.93 n.d. n.d. 1.33 | 1.62 | 1 of 18 (2.20)
QISLNGWDGEPYEYAVA | EGSIADA | QQYHRLPLS | n.d. n.d. 1.97 n.d. n.d. n.d. | 1.97 | 0 of 18
QLLTGVTENAKNGKAIA | NHEEKAQ | QQYFRLPFS | 0.10 0.05 0.14 -0.18 0.04 0.24 | 0.06 | 0 of 18
NLSQGDMYHFNTRSAVA | NTTMRDF | QQYNRLPLD | 1.38 0.90 1.60 0.79 0.96 1.73 | 1.23 | 2 of 18 (2.64)
QMRLLLENSGHRMNSIA | DETMKPD | QQYVRLPLQ | 0.61 0.91 0.37 1.64 n.d. 1.50 | 1.01 | 0 of 18
KLWGRCMDEELINYSIA | NGRLAVQ | QQYDRLPLS | 1.38 0.98 1.60 0.61 0.55 0.93 | 1.01 | 0 of 18
QMQLNQIEGNQHQNSIA | GESEADM | QHYARLPLT | n.d. n.d. n.d. n.d. n.d. n.d. | n.d. | 0 of 18
VMQMDLYWNNDETYAIA | DVTMKEK | QQYNRLPLM | n.d. n.d. n.d. n.d. n.d. n.d. | n.d. | 0 of 18
QINHQGLSANLNDRNVA | AKNLRVD | QQYNRLPLS | 0.37 0.11 0.16 0.22 0.20 0.32 | 0.23 | 4 of 18 (2.64)
TMNHELIQDDPMMNNVA | DGSLKTA | QQYYRLPLS | 0.98 1.62 0.39 0.90 0.69 0.77 | 0.89 | 0 of 18
NIVGRAVMQYSGRNAIA | NAHARCT | QQYFRLPLT | 0.68 1.15 1.24 1.93 1.73 n.d. | 1.35 | 1 of 18 (1.09)